Experimental data reported in publication PMC9974930 (Journal of medicinal chemistry, 2023).

Protein sequences, listed by entry. Tags and fused reporters are not part of them.
UniProt P34913, whole entry: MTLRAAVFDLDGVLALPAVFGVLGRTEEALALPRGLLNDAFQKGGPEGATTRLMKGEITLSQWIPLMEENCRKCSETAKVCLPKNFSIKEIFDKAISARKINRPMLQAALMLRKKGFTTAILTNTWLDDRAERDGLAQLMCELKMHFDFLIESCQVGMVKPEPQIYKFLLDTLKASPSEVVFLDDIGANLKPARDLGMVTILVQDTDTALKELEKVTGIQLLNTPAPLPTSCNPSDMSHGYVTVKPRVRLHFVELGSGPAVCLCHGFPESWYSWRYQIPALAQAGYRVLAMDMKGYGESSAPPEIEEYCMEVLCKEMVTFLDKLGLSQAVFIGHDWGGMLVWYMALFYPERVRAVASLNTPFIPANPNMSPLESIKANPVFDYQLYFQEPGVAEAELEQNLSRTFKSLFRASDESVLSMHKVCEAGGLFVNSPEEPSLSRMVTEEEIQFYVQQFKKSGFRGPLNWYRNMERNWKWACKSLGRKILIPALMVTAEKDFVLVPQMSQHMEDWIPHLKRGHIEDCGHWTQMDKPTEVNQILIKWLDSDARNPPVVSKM

Molecular target: recombinant human sEH (HsEH) (Homo sapiens, UniProt P34913)
Assay type: biochemical
Conditions: LLE = pIC50-cLogP

CCC(C)C(=O)N1CCC(CC(=O)N2CCCN(C(=O)c3ccc(NC(=O)NC45CC6CC(C)(CC(C)(C6)C4)C5)c(F)c3)CC2)CC1 [H2, 1-((1r,3R,5S,7r)-3,5-Dimethyladamantan-1-yl)-3-(2-fluoro-4-(4-(2-(1-(2-methylbutanoyl)piperidin-4-yl)acetyl)-1,4-diazepane-1-carbonyl)phenyl)urea]
LLE (ligand lipophilicity efficiency): 4.883
